Assay results reported in ChEMBL document CHEMBL1201862, “PubChem BioAssay data set” (2004).
This is one part of the list. Rule as the data show it: active = GI50 up to about 1.1 µM and inactive = higher. Only a part of the results of these assays is listed, not drawn at random.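 Each compound was tested at five concentrations against cells in 96-well plates for 48 hours. The concentration for 50% growth inhibition is given as GI50.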 For part of these data: Potency and affinity values are given separately.

Tests used:
Test in all cases: NCI tumour cell line growth inhibition, 48 h
NCI/ADR-RES = tested on: NCI/ADR-RES
OVCAR-3 = tested on: OVCAR-3
OVCAR-4 = tested on: OVCAR-4
OVCAR-5 = tested on: OVCAR-5
OVCAR-8 = tested on: OVCAR-8
PC-3 = tested on: PC-3
RPMI-8226 = tested on: RPMI-8226
SF-268 = tested on: SF-268
SF-295 = tested on: SF-295
SF-539 = tested on: SF-539
SK-MEL-28 = tested on: SK-MEL-28
SK-MEL-2 = tested on: SK-MEL-2
SK-MEL-5 = tested on: SK-MEL-5
SK-OV-3 = tested on: SK-OV-3
SN12C = tested on: SN12C
SNB-19 = tested on: SNB-19
SNB-75 = tested on: SNB-75
SR = tested on: SR

Measured: GI50

O=[N+]([O-])C1([N+](=O)[O-])COCOC1
inactive: NCI/ADR-RES 56.5 µM | OVCAR-3 = > 100 µM | OVCAR-4 = > 100 µM | OVCAR-5 = > 100 µM | OVCAR-8 = > 100 µM | PC-3 = > 100 µM | RPMI-8226 = 63.5 µM | SF-268 = > 100 µM | SF-295 = > 100 µM | SF-539 = > 100 µM | SK-MEL-28 = > 100 µM | SK-MEL-2 = 90.2 µM | SK-MEL-5 = 22.1 µM | SK-OV-3 = > 100 µM | SN12C > 100 µM | SNB-19 = > 100 µM | SNB-75 = > 100 µM | SR 29.8 µM

CCCCCCCCCCCCCNCC(C)O (stereo not given)
inactive: NCI/ADR-RES 14.1 µM | OVCAR-3 = 13.2 µM | OVCAR-4 = 13.9 µM | OVCAR-5 = 16.6 µM | OVCAR-8 = 4.19 µM | RPMI-8226 = 2.84 µM | SF-268 = 13.7 µM | SF-295 = 12.4 µM | SF-539 = 13.3 µM | SK-MEL-28 = 13.6 µM | SK-MEL-2 = 16 µM | SK-MEL-5 = 8.11 µM | SK-OV-3 = 18.4 µM | SN12C 14.2 µM | SNB-19 = 15.6 µM | SNB-75 = 13.2 µM | SR 3.09 µM

ClCCSc1c2ccccc2nc2ccccc12
inactive: NCI/ADR-RES 25.1 µM | OVCAR-3 = 5 µM | OVCAR-4 = 17.5 µM | OVCAR-5 = 22.8 µM | OVCAR-8 = 6.82 µM | PC-3 = 13 µM | RPMI-8226 = 2.93 µM | SF-268 = 11.6 µM | SF-295 = 30.6 µM | SF-539 = 4.73 µM | SK-MEL-28 = 14.4 µM | SK-MEL-2 = 16.2 µM | SK-MEL-5 = 17 µM | SK-OV-3 = 26.8 µM | SN12C 3.51 µM | SNB-19 = 25.8 µM | SNB-75 = 20.1 µM | SR 1.98 µM

O=C1CCN2CCCC12 (stereo not given)
inactive: NCI/ADR-RES > 100 µM | OVCAR-4 = > 100 µM | OVCAR-5 = > 100 µM | OVCAR-8 = > 100 µM | PC-3 = > 100 µM | RPMI-8226 = > 100 µM | SF-268 = > 100 µM | SK-MEL-28 = > 100 µM | SK-MEL-2 = > 100 µM | SK-MEL-5 = > 100 µM | SN12C > 100 µM | SNB-19 = > 100 µM | SNB-75 = > 100 µM | SR > 100 µM

Cc1ccc([N+](=O)[O-])c(C[N+](C)(CCCl)CCCl)c1
inactive: NCI/ADR-RES 22.1 µM | OVCAR-3 = 17.6 µM | OVCAR-4 = 13.9 µM | OVCAR-5 = 42.4 µM | OVCAR-8 = 14.6 µM | PC-3 = 17.8 µM | RPMI-8226 = 7.4 µM | SF-268 = 34.4 µM | SF-295 = 27.4 µM | SF-539 = 22.9 µM | SK-MEL-28 = 27 µM | SK-MEL-2 = 26.9 µM | SK-MEL-5 = 10.4 µM | SK-OV-3 = 37.2 µM | SN12C 11.6 µM | SNB-19 = 20.6 µM | SNB-75 = 22.9 µM | SR 2.48 µM

CC1=C[C@H]2O[C@@H]3[C@H](O)[C@@H](O)[C@](C)([C@@]2(O)CC1)[C@]31CO1
inactive: NCI/ADR-RES 1.17 µM | OVCAR-5 = 1.56 µM

NNc1nc2nonc2nc1NN
inactive: NCI/ADR-RES 23 µM | OVCAR-3 = 5.13 µM | OVCAR-4 = 22.6 µM | OVCAR-5 = 42.3 µM | OVCAR-8 = 22.4 µM | PC-3 = 32.1 µM | RPMI-8226 = 43.3 µM | SF-268 = 55.2 µM | SF-295 = > 100 µM | SF-539 = 64.1 µM | SK-MEL-28 = > 100 µM | SK-MEL-2 = 75 µM | SK-MEL-5 = 41.7 µM | SK-OV-3 = > 100 µM | SN12C 40.6 µM | SNB-19 = 61.5 µM | SNB-75 = > 100 µM | SR 36.6 µM

O[C@@H]1CCN2CCC[C@H]12
inactive: NCI/ADR-RES > 100 µM | OVCAR-4 = > 100 µM | OVCAR-5 = > 100 µM | OVCAR-8 = > 100 µM | PC-3 = > 100 µM | RPMI-8226 = > 100 µM | SF-268 = > 100 µM | SF-539 = > 100 µM | SK-MEL-28 = > 100 µM | SK-MEL-2 = > 100 µM | SK-MEL-5 = > 100 µM | SN12C > 100 µM | SNB-19 = > 100 µM | SNB-75 = > 100 µM | SR > 100 µM
